Test results reported in article PMC3794980, “Identification of Conserved and HLA Promiscuous DENV3 T-Cell Epitopes” (PLoS Neglected Tropical Diseases, 2013).
“Also recorded” adds a separate entry of the source.

By UniProt entry, the sequences of proteins in these tests, tags left out. Residues count along the entry.
UniProt P01911, 30-266: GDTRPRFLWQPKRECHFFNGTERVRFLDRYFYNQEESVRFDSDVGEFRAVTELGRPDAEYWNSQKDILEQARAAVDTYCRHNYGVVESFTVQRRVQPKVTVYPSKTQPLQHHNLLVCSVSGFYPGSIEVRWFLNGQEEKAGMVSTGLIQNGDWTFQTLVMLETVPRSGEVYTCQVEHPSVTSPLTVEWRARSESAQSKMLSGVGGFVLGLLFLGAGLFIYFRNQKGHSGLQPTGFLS

Columns and labels:
[1] = system: HLA-A24 (A*2402) transgenic mice; experiment: IFN-γ ELISPOT of splenocytes from peptide-pool-immunized HLA-A24 transgenic mice; type: in vivo; conditions: for SFC±SD: IFN-γ ELISPOT, CD4-depleted splenocytes of HLA-A24 TgM immunized s.c. twice with peptide pool in Titermax gold, duplicate wells; for Functional avidity: minimum peptide concentration (10, 1, 0.1 µg/mL tested) that activated memory T-cells, HLA-A24 TgM
[2] = biological target: HLA-DR DRB5*0101 (human (endogenous in EBV transformed cell lines)); experiment: radioligand binding
[3] = biological target: HLA-DR DRB1*0101 (human (endogenous in EBV transformed cell lines)); experiment: radioligand binding
[4] = biological target: HLA-DR DRB1*0404 (human (endogenous in EBV transformed cell lines)); experiment: radioligand binding
HLA-A2:Ig fusion protein = experiment: fluorescence polarisation
[5] = biological target: HLA-DR DRB1*1101 (human (endogenous in EBV transformed cell lines)); experiment: radioligand binding
[6] = system: HLA-B07 (B*0702) transgenic mice; experiment: IFN-γ ELISPOT of splenocytes from peptide-pool-immunized HLA-B07 transgenic mice; type: in vivo; conditions: for SFC±SD: IFN-γ ELISPOT, CD4-depleted splenocytes of HLA-B07 TgM immunized s.c. twice with peptide pool in Titermax gold, duplicate wells; for Functional avidity: minimum peptide concentration (10, 1, 0.1 µg/mL tested) that activated memory T-cells, HLA-B07 TgM
[7] = system: HLA-DR2 (DRA1*0101/I-Eα; DRB1*1501/I-Eβ) transgenic mice
[8] = system: CD8 depleted PBMCs from DR02 positive subjects; experiment: IFN-γ ELISPOT, memory T-cells of HLA-DR2 positive subjects with history of DENV3 infection; type: cell-based, human; conditions: n = 3 subjects immune to DENV3; CD8 depleted PBMC cultured a week with individual peptides, 10 µg/mL
[9] = system: HLA transgenic mice (A02, A24, B07, DR2, DR3 and DR4); experiment: Immunogenicity screen in six HLA transgenic mice strains (summary); type: in vivo; conditions: IFN-γ ELISPOT in six TgM strains; Negative = none
[10] = system: HLA of the TgM (A02, A24, B07, DR2, DR3, DR4); experiment: HLA binding assays, summary of HLA affinity confirmed; parameters: species or system human; conditions: ND: non-determined
DRB1*1501 = DRB1*1501 (Homo sapiens, UniProt P01903+P01911); experiment: biochemical; type: binding
[11] = system: HLA-DR4 (HLA-DRA1*0101; -DRB1*0401) transgenic mice; conditions: representative IFN-γ ELISPOT data, CD8-depleted splenocytes of HLA-DR4 TgM
[12] = system: HLA-DR3 (DRA1*0101; -DRB1*0301) transgenic mice; conditions: for Transgenic mice DR3 (ELISPOT): representative IFN-γ ELISPOT data, CD8-depleted splenocytes of HLA-DR3 TgM
[13] = system: 14 different HLA molecules (HLA class II); experiment: HLA class II binding assays, promiscuity over 14 HLA molecules (summary); conditions: HLA molecules among the 14 analyzed to which the peptide binds; binding affinity characterized by IC50 below 1000 nM
[14] = system: HLA-A02 (A*0201) transgenic mice; experiment: IFN-γ ELISPOT of splenocytes from peptide-pool-immunized HLA-A02 transgenic mice; conditions: for SFC±SD: IFN-γ ELISPOT, CD4-depleted splenocytes of HLA-A02 TgM immunized s.c. twice with peptide pool in Titermax gold, duplicate wells; for Functional avidity: minimum peptide concentration (10, 1, 0.1 µg/mL tested) that activated memory T-cells, HLA-A02 TgM
HLA = HLA affinity (if known) described in the literature; ref column References of Table 4 (refs 15, 16, 18, 20, 21, 23-29, 74); cited from earlier work

Substance: AYTALFSGVSWVMKI [Env441–455, DENV3 Envelope 15-mer overlapping library peptide]
- SFC±SD [1]: 18±4 SFC per 1 million cells
- Functional avidity [1]: 10 µg/mL

Substance: DENV3 NS1 181-195 (peptide)
- IC50 [2]: 110 nM
- IC50 [3]: 518 nM
- IC50 [4]: 116 nM

Substance: DENV3 NS3 237-251 (peptide)
- IC50 [3]: 110 nM

Substance: DENV3 NS3_(399–407) (peptide)
- IC50 (HLA-A2:Ig fusion protein): 110 nM

Substance: DENV3 NS5 193-209 (peptide)
- IC50 [5]: 110 nM

Substance: GATTETPTWNRKELL [Env221–235, DENV3 Envelope 15-mer overlapping library peptide]
- SFC±SD [6]: 192±2 SFC per 1 million cells
- Functional avidity [6]: 10 µg/mL

Substance: GKTVWFVPSIKAGND [NS3_357–371]
- Transgenic mice DR2 (ELISPOT) ([7]; representative IFN-γ ELISPOT data, CD8-depleted splenocytes of HLA-DR2 TgM): 406+130 SFC per 1 million cells
- memory T-cell response (IFN-γ ELISPOT) in HLA-DR2 positive subjects [8]: elicited T-cell response in one of the volunteers; also recorded: activated memory T-cells of at least one of the subjects analyzed
- TGM (HLA transgenic mice in which the peptide was immunogenic) [9]: DR2
- Binding assay (HLA to which affinity was found) [10]: DR2
- specificity for DR2 molecule by binding assay (DRB1*1501): confirmed

Substance: HTLWSNGVLESDMII [NS1_229–243]
- Transgenic mice DR4 (ELISPOT) [11]: 214+15 SFC per 1 million cells
- Transgenic mice DR3 (ELISPOT) [12]: 205+12 SFC per 1 million cells
- HLA class II binders [13]: DRB1*0301, DRB1*0401, DRB3*0101

Substance: HTQTAGPWHLGKLEL [NS1_261–275]
- Transgenic mice DR3 (ELISPOT) [12]: 337+0 SFC per 1 million cells
- HLA class II binders [13]: DRB1*0301, DRB4*0101

Substance: IFMTATPPGTADAFP [NS3_313–327]
- HLA class II binders [13]: DRB1*0101, DRB1*0401, DRB1*0701, DRB1*0802, DRB4*0101

Substance: IVSSVNMVSRLLLNRFT [NS5_227–243]
- SFC±SD [14]: 44±11 SFC per 1 million cells
- Functional avidity [14]: 10 µg/mL

Substance: KKRNLTIMDLHPGSG [NS3_185–199]
- TGM (HLA transgenic mice in which the peptide was immunogenic) [9]: DR4
- Transgenic mice DR4 (ELISPOT) [11]: 39+13 SFC per 1 million cells
- Binding assay (HLA to which affinity was found) [10]: DR4
- HLA class II binders [13]: DRB1*0101, DR, B1*0301, DRB1*0401, DRB1*0405, DRB1*0802, DRB1*1101, DRB4*0101, DRB5*0101

Substance: LNSKNTSMSFSCIAI [Env466–480, DENV3 Envelope 15-mer overlapping library peptide]
- SFC±SD [1]: 31±0 SFC per 1 million cells
- Functional avidity [1]: 1 µg/mL

Substance: LNSKNTSMSFSCIAI [Envelope 466-480]
- Transgenic mice DR2 ([7]; IFN-γ ELISPOT of splenocytes, HLA-DR2 transgenic mice, printed as value+spread, '-' = no value, distinct from ND): 33+6
- Transgenic mice DR3 ([12]; IFN-γ ELISPOT of splenocytes, HLA-DR3 transgenic mice, printed as value+spread, '-' = no value, distinct from ND): 31+2

Substance: NREGKVVGLYGNGVV [NS3_141–155]
- TGM (HLA transgenic mice in which the peptide was immunogenic) [9]: Negative
- DENV3 Epitopes Reported: HLA affinity (HLA): NS3_141–155 ([…])/DRB1*1501

Substance: RTLGRNKRPRLCTREEF [NS5_382–398, DENV3 NS5 17-mer overlapping library peptide]
- SFC±SD [6]: 501±19 SFC per 1 million cells
- Functional avidity [6]: 0.1 µg/mL

Substance: TDISEMGANFKADRV [NS3_409–423]
- Transgenic mice DR3 (ELISPOT) [12]: 114+17 SFC per 1 million cells
- HLA class II binders [13]: DRB1*0301, DRB3*0101, DRB5*0101

Substance: TEYQKTKLNDWDFVV [NS3_393–407]
- SFC±SD [14]: 20±5 SFC per 1 million cells
- Functional avidity [14]: 0.1 µg/mL

Substance: TPTWNRKELLVTFKN [Env226–240, DENV3 Envelope 15-mer overlapping library peptide]
- SFC±SD [6]: 456±7 SFC per 1 million cells
- Functional avidity [6]: 0.1 µg/mL

Substance: VMDIISRKDQRGSGQVG [NS5_588–604]
- HLA class II binders [13]: DRB1*0301, DRB1*1101
